Measurements published in patent publication US20060257400A1, “COMBINATION THERAPY” (Bristol-Myers Squibb Company, priority 2005, published 2006).

Test system: Human L2987 lung carcinomas
Assay: Antitumor testing, s.c. L2987 xenografts in nude mice
Type: in vivo
Settings: athymic nude mice, s.c. L2987 tumors established at 100-200 mm^3; Compound I 100 mg/Kg daily; Erbitux 1 mg per mouse every three days, 5 doses; combination given essentially simultaneously
Method: Compounds. Compound I was synthesized by Bristol-Myers Squibb (BMS) chemists. Cetuximab (also known as Erbitux®) was a gift of Imclone Systems, Inc. The antibody was dissolved in phosphate buffered saline for i.p. injection to mice. Compound I was administered to mice in a volume of 100 mg/kg of body weight based on the average weight of the mice in each group at the time of treatment. Cetuximab was administered in 0.25 ml on a per mouse basis.
Animals. Athymic (“nude”) mice, 5-6 weeks of age, purchased from Harlan Sprague Dawley (Indianapolis, Ind.), were quarantined for ˜2 weeks before their use for tumor propagation and drug efficacy testing. They were fed food and water ad libitum. All studies involving these animals were conducted in accordance with NIH (Bethesda, Md.) and Bristol Myers-Squibb animal care and use guidelines.
Tumors. Human L2987 lung carcinomas were maintained in nude mice by serial s.c. passage. All efficacy testing involved tumors implanted s.c. in nude mice. Treatment was initiated when tumors had become well established at between 100-200 mm^3.
Compound I was administered in combination with Erbitux and compared to either agent dosed alone. Each compound was dosed on its optimal preclinical schedule and dose level. This included a daily regimen for Compound I at 100 mg/Kg while Erbitux was dosed at 1 mg per mouse every three days for a total delivery of 5 doses. […]

## cetuximab [Erbitux]
  delay of tumor growth to target tumor size of 500 mm^3 compared to vehicle treated control group: 6 days
